Values quoted from earlier work in US5583117A, “Acylated uridine and cytidine for elevating tissue uridine and cytidine” (priority 1993, dated 1996).

System: brain
Settings: intraventricular administration; cited from earlier work

Which “concentrations of nucleotides, CDP-choline, CDP-ethanolamine and CMP” value does the source give for Nc1ccn([C@@H]2O[C@H](CO)[C@@H](O)[C@H]2O)c(=O)n1 [cytidine] here?
Its value is “measurable increase”.
